Experimental data taken from EP4834108A1, “AGENT FOR SHORTENING GROWTH PERIOD OF PLANT, FORMULATION FOR SHORTENING GROWTH PERIOD, AGENT FOR INDUCING EXPRESSION OF ANTHOGENESIS INDUCING GENE, METHOD FOR SHORTENING GROWTH PERIOD OF PLANT, PLANT, AGENT FOR MAKING GROWTH SPEED OF PLANT UNIFORM, AND METHOD FOR MAKING GROWTH SPEED OF PLANT UNIFORM” (dated 2026).

Key:
FT gene = assay: Experiment 3: transcriptome (microarray) analysis of treated Arabidopsis thaliana, FT gene expression; conditions: 50 mL of 1 mM treatment agent by bottom-watering eight days after sowing, RNA extracted on day 20 after sowing
Procedure: (§1) A treatment agent was prepared so that the L-form of ergothioneine (EGT) had the concentration below. A commercially available EGT was used, and pure water was used as a solvent.
In a plastic pot having a diameter of 60 mm and a height of 55 mm, granular soil (Kumiai horticultural soil) and vermiculite were mixed in a volume ratio of 3:1 and placed, and one Arabidopsis thaliana (Col-0) plant was sown per pot. Plastic deep dishes each having a diameter of 160 mm and a height of 28 mm were prepared, and six pots were respectively placed therein. They were placed in a thermostatic chamber set at a room temperature of 22°C with a 16-hour light and 8-hour dark cycle. The light conditions were set such that the light intensity was 5000 lx in the central part under fluorescent lamp irradiation. Bottom-watering was performed for irrigation, and the water level was set at about 5 mm.
After eight days from sowing, 50 mL of 1 mM treatment agent was supplied in place of water, by bottom-watering. Note that the group in which water was used in place of the aqueous solution of ergothioneine was designated as an untreated control group.
On day 20 after sowing, Arabidopsis thaliana was frozen with liquid nitrogen, total RNA was then extracted using NucleoSpin RNA Plant (Takara Bio Inc.), and transcriptome analysis was performed using Arabidopsis microarray Ver. 4.0 (Agilent Technologies, Inc.). […]

tomato (Regina) = assay: Experiment 1: number of days from sowing to flowering and to fruit setting of treated tomato; conditions: mean of 6 plants; for Number of days to flowering: control group 1: 62; for Number of days to fruit setting: control group 1: 76
Procedure: as §1
In a pot having a diameter of 65 mm, 90 mL of seedling raising soil (available from TAKII & CO., LTD.) was placed, and tomato (Regina) seeds were sown to grow one tomato plant per pot. The cultivation conditions were set to a 16-hour light and 8-hour dark cycle in a growth chamber set at a room temperature of 22°C, with a light intensity of 5000 lx in the central part under fluorescent lamp irradiation. Bottom-watering was performed for irrigation.
After 28 days from sowing, the tomato seedlings were transplanted into pots with a diameter of 135 mm, filled with 900 g of seedling raising soil (available from TAKII & CO., LTD.), and further grown in a greenhouse set at a room temperature of 25°C. The number of days from sowing to flowering (number of days to flowering) and the number of days from sowing to fruit setting (number of days to fruit setting) were then recorded.
To the tomato seedlings grown in the growth chamber, 50 mL of 0.1 mM or 0.5 mM treatment agent was supplied in place of water, by bottom-watering after 22 days and 25 days from sowing. These were designated as treated groups 1-1 and 1-2, respectively.
The tomatoes were transplanted after 28 days from sowing, and 50 mL of 0.5 mM treatment agent was applied by soil drenching around the tomato roots after 33 days, 35 days, and 37 days from sowing, and this was designated as treated group 1-3.
In addition to the same treatment as in the treated group 3, 50 mL of a treatment agent having an EGT concentration of 0.5 mM was applied by soil drenching around the tomato roots after 39 days, 41 days, and 43 days from sowing, and this was designated as treated group 1-4.
Note that "control group 1" presented in Table 1 is a control group that has not been treated with the treatment agent, and "treated group 1-1" to "treated group 1-4" are treated groups that have been treated with the treatment agent. The numerical values for each evaluation item are the average value and standard deviation (SD) based on the number of test plants.

[1] = Treated group 1-1: 50 mL of 0.1 mM treatment agent by bottom-watering after 22 and 25 days from sowing
[2] = Treated group 1-2: 50 mL of 0.5 mM treatment agent by bottom-watering after 22 and 25 days from sowing
[3] = Treated group 1-3: 50 mL of 0.5 mM treatment agent by soil drenching after 33, 35 and 37 days from sowing
[4] = Treated group 1-4: 50 mL of 0.5 mM treatment agent by soil drenching after 33, 35, 37, 39, 41 and 43 days from sowing

C[N+](C)(C)[C@@H](Cc1c[nH]c(=S)[nH]1)C(=O)[O-]
amount of the transcription product of the FT gene, increase as compared with the untreated control (FT gene): 2.4 times
Number of days to flowering (tomato (Regina); [1]): 57 days
Number of days to fruit setting (tomato (Regina); [1]): 68 days
Number of days to flowering (tomato (Regina); [2]): 57 days
Number of days to fruit setting (tomato (Regina); [2]): 70 days
Number of days to flowering (tomato (Regina); [3]): 58 days
Number of days to fruit setting (tomato (Regina); [3]): 70 days
Number of days to flowering (tomato (Regina); [4]): 59 days
Number of days to fruit setting (tomato (Regina); [4]): 74 days
